Data: PubChem BioAssay (NCI)
Only a part is listed here, and it is no random draw.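 Note: values are percent growth. 100 is the growth of untreated cells, values between 100 and 0 indicate rising inhibition; between -100 and 0 indicates cell death.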 Calls of active or inactive are those of the source. Rule for the calls: active = growth percent below 10; inactive = the rest.

Test system: UACC-62 melanoma
Test: NCI-60 one-dose screen, 48 h (100 = growth as untreated, 0 = no growth, -100 = all killed)
Settings: 10 µM

Structure (SMILES)	growth
NC(=NCCN/C(N)=N/[N+](=O)[O-])N[N+](=O)[O-]	inactive: 106%
O=[N+]([O-])N(CCN(CC(Br)([N+](=O)[O-])[N+](=O)[O-])[N+](=O)[O-])CC(Br)([N+](=O)[O-])[N+](=O)[O-]	inactive: 103%
CN(C)Nc1c([N+](=O)[O-])cc([N+](=O)[O-])cc1[N+](=O)[O-]	inactive: 104%
O=[N+]([O-])OCCOc1ccc([N+](=O)[O-])cc1[N+](=O)[O-]	inactive: 97%
N=C(N)N(N)[N+](=O)[O-]	inactive: 101%
O=[N+]([O-])c1cc([N+](=O)[O-])c(C(F)(F)F)c([N+](=O)[O-])c1O	inactive: 87.1%
CCOC(=O)CSc1c(N)c(C)nn1C.O=[N+]([O-])c1cc([N+](=O)[O-])c(O)c([N+](=O)[O-])c1	inactive: 96.4%
O=[N+]([O-])c1ccc(OP2(=O)COCCO2)cc1 (centres undefined)	inactive: 94.9%
CCN(C)CC.O=[N+]([O-])c1cc([N+](=O)[O-])c(O)c([N+](=O)[O-])c1	inactive: 98%
OCCSCCO	inactive: 101%
CC(C)N1CCN(CCOC(=O)C(O)(c2ccccc2)c2ccccc2)CC1	inactive: 104%
O=[N+]([O-])c1ccc(Oc2c([N+](=O)[O-])cc([N+](=O)[O-])cc2[N+](=O)[O-])cc1	inactive: 100%
O=C(Cl)c1c([N+](=O)[O-])cc([N+](=O)[O-])cc1[N+](=O)[O-]	inactive: 85.5%
O=[N+]([O-])c1cc([N+](=O)[O-])c(Nc2ccc(Cl)cc2)c([N+](=O)[O-])c1	inactive: 44.9%
